Broadly, the Kd is the equilibrium constant for the complex coming apart. Read a low Kd as higher affinity. The term IC50 denotes the concentration at which inhibition is half-maximal. The low end stands for greater potency in that assay, the high end for weaker potency in that assay.

The record followed here is publication doi:10.1101/208439v1 (biorxiv, 2017).

One assay deals with T1, NSD2 SET domain (Homo sapiens, UniProt O96028).
T1 construct: SET domain, residues 934-1241, N-terminal His tag, E. coli
T1 sequence (O96028 934-1241): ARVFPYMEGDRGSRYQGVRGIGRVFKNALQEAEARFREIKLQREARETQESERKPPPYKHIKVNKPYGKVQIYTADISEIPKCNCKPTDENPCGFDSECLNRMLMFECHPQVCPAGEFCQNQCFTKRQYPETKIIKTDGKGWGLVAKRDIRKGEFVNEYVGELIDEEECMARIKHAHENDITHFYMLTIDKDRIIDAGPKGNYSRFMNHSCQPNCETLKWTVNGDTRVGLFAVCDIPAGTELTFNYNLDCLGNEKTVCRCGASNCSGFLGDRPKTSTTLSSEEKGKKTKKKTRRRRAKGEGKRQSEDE
The assay is described as follows: SPR Biacore 8K, single-cycle kinetics, […] model. Format: binding. On the technique in general: Surface plasmon resonance follows binding to a sensor surface in real time, without labels.

Assay [1] addresses T2, NSD2 (Homo sapiens, UniProt O96028, E1099K).
T2 construct: full length (residues 2-1365), N-terminal His tag, insect cell/baculovirus
T2 sequence (O96028 2-1365 E1099K): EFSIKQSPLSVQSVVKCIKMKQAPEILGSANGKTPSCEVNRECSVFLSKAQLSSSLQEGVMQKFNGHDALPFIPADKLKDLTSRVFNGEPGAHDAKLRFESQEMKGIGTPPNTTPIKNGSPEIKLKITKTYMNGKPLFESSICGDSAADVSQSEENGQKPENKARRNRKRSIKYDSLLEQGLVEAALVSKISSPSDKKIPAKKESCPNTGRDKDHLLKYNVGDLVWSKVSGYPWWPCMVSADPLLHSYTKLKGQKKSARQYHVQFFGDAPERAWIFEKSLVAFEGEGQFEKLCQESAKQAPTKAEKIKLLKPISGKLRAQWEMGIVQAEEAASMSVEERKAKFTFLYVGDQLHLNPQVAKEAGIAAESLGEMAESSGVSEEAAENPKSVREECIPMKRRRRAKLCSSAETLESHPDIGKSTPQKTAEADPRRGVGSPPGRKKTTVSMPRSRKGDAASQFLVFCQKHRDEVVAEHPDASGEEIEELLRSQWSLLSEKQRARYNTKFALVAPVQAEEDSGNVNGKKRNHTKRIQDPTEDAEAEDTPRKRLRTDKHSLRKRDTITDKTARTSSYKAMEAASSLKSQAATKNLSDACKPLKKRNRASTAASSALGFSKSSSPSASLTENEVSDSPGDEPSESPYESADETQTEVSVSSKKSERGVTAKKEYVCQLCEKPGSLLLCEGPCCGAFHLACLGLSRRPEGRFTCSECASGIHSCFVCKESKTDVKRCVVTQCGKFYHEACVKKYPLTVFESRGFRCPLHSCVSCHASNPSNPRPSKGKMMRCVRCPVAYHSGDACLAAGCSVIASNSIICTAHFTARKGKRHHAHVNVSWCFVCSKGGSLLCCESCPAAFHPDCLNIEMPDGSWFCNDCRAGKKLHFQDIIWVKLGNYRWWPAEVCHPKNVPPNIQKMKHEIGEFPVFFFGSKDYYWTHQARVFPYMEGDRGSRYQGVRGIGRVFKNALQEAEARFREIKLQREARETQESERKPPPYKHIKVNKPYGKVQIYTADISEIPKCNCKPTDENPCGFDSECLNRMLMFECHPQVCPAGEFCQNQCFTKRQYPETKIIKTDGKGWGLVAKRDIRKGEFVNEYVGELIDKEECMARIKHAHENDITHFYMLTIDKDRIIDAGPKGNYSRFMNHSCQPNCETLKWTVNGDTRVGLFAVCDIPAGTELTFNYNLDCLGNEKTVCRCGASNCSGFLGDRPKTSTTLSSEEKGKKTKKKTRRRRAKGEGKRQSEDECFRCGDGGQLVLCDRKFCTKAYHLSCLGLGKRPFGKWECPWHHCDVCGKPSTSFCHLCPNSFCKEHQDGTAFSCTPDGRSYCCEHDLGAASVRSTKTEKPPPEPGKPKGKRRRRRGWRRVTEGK
The assay is described as follows: HotSpot [3H]SAM filter-binding methyltransferase assay. Format: biochemical.

For assay [2], the target named is T3, NSD2 (Homo sapiens, UniProt O96028).
T3 construct: full length (residues 2-1365), N-terminal His tag, insect cell/baculovirus
T3 sequence (O96028 2-1365): T2 sequence (O96028 2-1365 E1099K) with K1098E
The description is as above. The class given is biochemical.

Assay [3] addresses T4, NSD2 (Homo sapiens, UniProt O96028, T1150A).
T4 construct: full length (residues 2-1365), N-terminal His tag, insect cell/baculovirus
T4 sequence (O96028 2-1365 T1150A): T2 sequence (O96028 2-1365 E1099K) with K1098E, T1149A
Described as above. Format: biochemical.

Where a chain is given by its changes, count along the chain named.

`Nc1ncnc2c1ncn2[C@@H]1O[C@H](CSCC[C@H](N)C(=O)O)[C@@H](O)[C@H]1O` [SAH] had a Kd on NSD2 SET domain of 5.1 µM. For the same molecule, the IC50 at NSD2 [1] stood at 940 nM; at NSD2 [2], 8.2 µM; on NSD2 [3] it was 1500 nM.
